Laboratory results taken from patent US20160010138A1, “RAPID DETERMINATION OF MICROBIAL DROWTH AND ANTIMICROBIAL SUSEPTABILITY” (priority 2013, published 2016).

Test system: Klebsiella pneumoniae (KP) clinical isolates
Assay: KPC assay: growth in ertapenem with and without boronic acid inhibitor (MADM)
Assay type: cell-based
Conditions: KPC-positive isolate; ETP 16 μg/mL + APB 300 μg/mL (FIG. 20B vs 20C)
Experimental: A MADM system was used with a purpose-built 32-channel disposable fluidic cassette (FIG. 4A). Cassette flowcells (FIG. 4B) had transparent top and bottom surfaces to allow microscope imaging. The bottom surface was coated with poly-L-lysine to immobilize live bacteria.
Clinical isolates of Pseudomonas aeruginosa (PA), Acinetobacter baumannii (AB), and Klebsiella pneumoniae (KP) were tested. Test agents included amikacin (AN), imipenem (IMP), ceftazidime (CAZ), ertapenem (ETP), aminophenylboronic acid (APB), and benzo(b)thiophene-2-boronic acid (BTB). The boronic acids inhibit the KPC enzyme as well as AmpC. Test results are expressed as nonsusceptible (NS) or susceptible (S).
Isolates were grown on blood agar, suspended colonies in tryptic soy broth for 2 hours, then centrifuged and resuspended log-phase bacteria in low ionic strength electrokinetic buffer.
MADM system analysis was performed using a 32-channel disposable fluidic cassette (FIG. 4A) to measure growth of immobilized bacteria. […]
10 μL aliquots of 5E+7 CFU/mL were pipetted into separate flowcells for each isolate and test condition. […] The system measured growth at 10-minute intervals. […] Growth was evaluated, interpreting results for PA, AB, and KP-ETP as NS if growth had not arrested within 3 hours. […]

Nc1cccc(B(O)O)c1 [APB, aminophenylboronic acid]
difference between ETP alone and ETP+APB: enzyme inhibition and decreased resistance
